These results are taken from ChEMBL document CHEMBL1135802, “Pyrrolo[1,3]benzothiazepine-based atypical antipsychotic agents. Synthesis, structure-activity relationship, molecular modeling, and biological studies” (J Med Chem, 2002).

Protein sequences, listed by entry. Tags and fused reporters are not part of them.
UniProt P19020, whole entry: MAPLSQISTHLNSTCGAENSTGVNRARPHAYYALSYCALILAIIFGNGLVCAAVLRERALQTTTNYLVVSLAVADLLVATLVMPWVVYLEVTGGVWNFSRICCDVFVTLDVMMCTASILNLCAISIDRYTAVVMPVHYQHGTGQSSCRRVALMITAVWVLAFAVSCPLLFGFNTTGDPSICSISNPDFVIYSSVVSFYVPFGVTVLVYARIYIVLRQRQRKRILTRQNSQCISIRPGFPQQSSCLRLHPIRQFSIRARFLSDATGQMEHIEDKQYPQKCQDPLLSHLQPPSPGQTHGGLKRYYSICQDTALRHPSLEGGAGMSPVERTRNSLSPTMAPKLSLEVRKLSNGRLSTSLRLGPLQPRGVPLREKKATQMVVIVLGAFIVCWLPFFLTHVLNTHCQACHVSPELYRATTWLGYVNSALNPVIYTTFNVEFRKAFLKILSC
UniProt P18901, whole entry: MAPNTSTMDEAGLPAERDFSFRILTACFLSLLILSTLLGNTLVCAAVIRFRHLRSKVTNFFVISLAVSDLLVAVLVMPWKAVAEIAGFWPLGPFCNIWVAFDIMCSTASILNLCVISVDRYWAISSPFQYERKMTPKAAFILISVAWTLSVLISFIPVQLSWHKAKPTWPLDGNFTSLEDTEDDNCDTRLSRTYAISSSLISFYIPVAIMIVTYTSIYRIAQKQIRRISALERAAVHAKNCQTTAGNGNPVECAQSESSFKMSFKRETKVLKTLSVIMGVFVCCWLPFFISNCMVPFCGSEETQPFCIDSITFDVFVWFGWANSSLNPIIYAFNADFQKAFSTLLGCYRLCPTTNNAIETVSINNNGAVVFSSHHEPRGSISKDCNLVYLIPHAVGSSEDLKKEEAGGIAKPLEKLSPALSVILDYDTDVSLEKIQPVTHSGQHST
UniProt P14842, whole entry: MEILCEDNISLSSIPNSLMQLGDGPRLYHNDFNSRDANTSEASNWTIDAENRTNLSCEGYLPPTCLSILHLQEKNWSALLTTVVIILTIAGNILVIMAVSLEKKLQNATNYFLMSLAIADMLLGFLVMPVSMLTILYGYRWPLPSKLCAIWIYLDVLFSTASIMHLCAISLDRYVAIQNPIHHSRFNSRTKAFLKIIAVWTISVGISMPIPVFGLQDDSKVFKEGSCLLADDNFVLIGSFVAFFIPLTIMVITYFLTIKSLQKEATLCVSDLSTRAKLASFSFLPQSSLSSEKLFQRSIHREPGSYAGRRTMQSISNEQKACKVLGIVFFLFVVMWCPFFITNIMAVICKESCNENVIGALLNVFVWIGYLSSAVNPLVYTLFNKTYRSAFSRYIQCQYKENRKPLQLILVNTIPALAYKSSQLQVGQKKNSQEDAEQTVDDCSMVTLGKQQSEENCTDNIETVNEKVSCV
UniProt P31390, whole entry: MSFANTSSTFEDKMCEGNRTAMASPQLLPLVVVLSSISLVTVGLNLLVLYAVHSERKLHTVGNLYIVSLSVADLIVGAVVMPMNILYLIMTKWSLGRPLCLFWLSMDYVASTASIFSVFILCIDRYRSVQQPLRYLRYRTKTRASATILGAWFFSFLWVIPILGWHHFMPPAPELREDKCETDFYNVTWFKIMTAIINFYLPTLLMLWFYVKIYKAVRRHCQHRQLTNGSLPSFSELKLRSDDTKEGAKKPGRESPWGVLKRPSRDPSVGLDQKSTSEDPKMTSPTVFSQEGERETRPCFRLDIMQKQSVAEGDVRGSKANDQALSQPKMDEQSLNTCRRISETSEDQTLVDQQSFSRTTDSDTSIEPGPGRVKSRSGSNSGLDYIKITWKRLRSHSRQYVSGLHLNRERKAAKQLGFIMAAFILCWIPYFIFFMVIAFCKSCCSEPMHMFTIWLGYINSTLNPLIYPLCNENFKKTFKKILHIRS

SMILES strings stand for the structures. pKi: −log10 of the molar value.

As usually defined, the pKi is −log10 of the Ki, conventionally taken in molar units. Higher therefore signals a low Ki.

Assay [1] deals with T1, D(3) dopamine receptor (Rattus norvegicus, UniProt P19020). Set-up: species or system Tissue.
For assay [2], the target named is T2, D(1A) dopamine receptor (Rattus norvegicus, UniProt P18901).
In assay [3] the target is T3, 5-hydroxytryptamine receptor 2A (Rattus norvegicus, UniProt P14842). Briefly: biochemical. It counts as tissue-based, Cerebral cortex.
Assay [4] deals with T2, D(1A) dopamine receptor. The source holds these as a separate data set.
In another assay the target is Histamine H1 receptor (Rattus norvegicus, UniProt P31390). Put plainly: biochemical. It counts as tissue-based, Frontal cortex.
Assay [5] addresses T3, 5-hydroxytryptamine receptor 2A. Put plainly: biochemical.
Assay [6] addresses T1, D(3) dopamine receptor. Set-up: species or system Tissue. This is another data set of the same source.
Assay [7] has as its target T1, D(3) dopamine receptor. Set-up: species or system Tissue. This is another data set of the same source.

`CN1CCN([C@H]2Cn3cccc3Sc3ccc(F)cc32)CC1` (stereo in doubt; (+)-6b): the pKi at D(3) dopamine receptor [1] is 6.39; on D(1A) dopamine receptor [2], 7.22; in assay [3], 8.40; on D(1A) dopamine receptor [4] it was 7.22; on Histamine H1 receptor, 7.48; in assay [5], 8.46. On D(3) dopamine receptor [6], this molecule gave a pKi of 6.39.
With `CN1CCN([C@@H]2Cn3cccc3Sc3ccccc32)CC1` (stereo in doubt; (+)-6a), the pKi on D(3) dopamine receptor [1] and at D(3) dopamine receptor [6] was 6.07 in each case.
In the case of `CN1CCN([C@@H]2Cn3cccc3Sc3ccc(Cl)cc32)CC1`, on Histamine H1 receptor, the pKi was 7.67.
At D(1A) dopamine receptor [2], `CN1CCN([C@H]2Cn3cccc3Sc3ccc(Cl)cc32)CC1` had a pKi of 7.66.
On to `CN1CCN([C@@H]2Cn3cccc3Sc3ccccc32)CC1` (stereo in doubt; (-)-6a), for which the pKi at D(3) dopamine receptor [7] was 7.64.
For `CN1CCN([C@H]2Cn3cccc3Sc3ccc(F)cc32)CC1` (stereo in doubt; (-)-6b), the pKi was 8.03 at D(3) dopamine receptor [1]; 7.20 on D(1A) dopamine receptor [2]; 8.34 on Histamine H1 receptor; 8.37 in assay [5]; 8.03 on D(3) dopamine receptor [6].
